Sequences of proteins named here, by UniProt entry; tags and fusion partners are left off.
UniProt P06211, whole entry: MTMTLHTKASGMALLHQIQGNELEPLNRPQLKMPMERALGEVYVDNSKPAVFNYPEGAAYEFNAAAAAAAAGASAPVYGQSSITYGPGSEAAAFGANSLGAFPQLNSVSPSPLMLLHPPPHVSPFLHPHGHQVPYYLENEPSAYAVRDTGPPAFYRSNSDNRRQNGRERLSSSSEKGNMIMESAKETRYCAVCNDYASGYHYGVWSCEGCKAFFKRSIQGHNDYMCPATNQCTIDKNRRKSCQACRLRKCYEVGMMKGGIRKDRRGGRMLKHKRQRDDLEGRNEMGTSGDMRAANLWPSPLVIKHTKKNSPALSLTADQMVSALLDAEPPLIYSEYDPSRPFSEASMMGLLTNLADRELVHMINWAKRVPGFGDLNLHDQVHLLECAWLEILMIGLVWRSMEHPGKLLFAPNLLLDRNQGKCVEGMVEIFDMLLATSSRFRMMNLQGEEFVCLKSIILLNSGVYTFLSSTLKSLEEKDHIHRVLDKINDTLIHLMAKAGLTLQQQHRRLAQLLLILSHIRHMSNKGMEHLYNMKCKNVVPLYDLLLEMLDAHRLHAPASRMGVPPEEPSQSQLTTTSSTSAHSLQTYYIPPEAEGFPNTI
UniProt Q62986, whole entry: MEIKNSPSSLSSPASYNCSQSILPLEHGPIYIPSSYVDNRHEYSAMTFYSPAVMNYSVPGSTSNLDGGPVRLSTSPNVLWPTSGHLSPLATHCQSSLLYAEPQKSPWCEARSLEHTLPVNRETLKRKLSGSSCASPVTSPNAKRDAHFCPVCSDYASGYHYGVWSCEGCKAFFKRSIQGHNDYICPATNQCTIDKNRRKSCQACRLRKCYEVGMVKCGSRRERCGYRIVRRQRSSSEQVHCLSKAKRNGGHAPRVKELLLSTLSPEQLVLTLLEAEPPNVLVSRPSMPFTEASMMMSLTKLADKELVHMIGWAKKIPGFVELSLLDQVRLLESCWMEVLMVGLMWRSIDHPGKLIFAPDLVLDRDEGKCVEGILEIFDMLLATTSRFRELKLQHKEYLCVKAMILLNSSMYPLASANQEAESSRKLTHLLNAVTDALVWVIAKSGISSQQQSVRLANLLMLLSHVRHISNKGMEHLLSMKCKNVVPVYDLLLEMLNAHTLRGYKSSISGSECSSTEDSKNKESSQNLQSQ
UniProt P06536, whole entry: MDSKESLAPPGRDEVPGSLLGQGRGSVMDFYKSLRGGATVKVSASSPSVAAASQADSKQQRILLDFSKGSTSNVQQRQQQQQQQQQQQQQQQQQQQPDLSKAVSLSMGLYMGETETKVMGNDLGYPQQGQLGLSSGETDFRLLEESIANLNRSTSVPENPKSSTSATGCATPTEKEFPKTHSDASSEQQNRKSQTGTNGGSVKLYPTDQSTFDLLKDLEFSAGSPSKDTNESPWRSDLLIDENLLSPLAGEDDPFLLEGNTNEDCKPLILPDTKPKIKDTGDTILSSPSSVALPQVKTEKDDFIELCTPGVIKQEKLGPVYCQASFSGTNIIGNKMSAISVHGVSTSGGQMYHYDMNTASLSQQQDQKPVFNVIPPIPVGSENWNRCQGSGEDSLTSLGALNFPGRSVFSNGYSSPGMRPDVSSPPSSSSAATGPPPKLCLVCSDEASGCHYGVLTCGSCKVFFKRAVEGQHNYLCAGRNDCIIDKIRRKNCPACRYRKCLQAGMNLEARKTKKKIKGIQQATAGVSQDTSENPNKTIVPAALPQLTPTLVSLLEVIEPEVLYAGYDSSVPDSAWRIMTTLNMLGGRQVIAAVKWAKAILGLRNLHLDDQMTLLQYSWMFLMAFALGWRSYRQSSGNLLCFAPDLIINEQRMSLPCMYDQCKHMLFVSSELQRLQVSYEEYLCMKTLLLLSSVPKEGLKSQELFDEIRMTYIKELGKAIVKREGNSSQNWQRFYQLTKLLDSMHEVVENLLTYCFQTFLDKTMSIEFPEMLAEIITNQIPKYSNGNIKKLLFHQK
UniProt P22199, whole entry: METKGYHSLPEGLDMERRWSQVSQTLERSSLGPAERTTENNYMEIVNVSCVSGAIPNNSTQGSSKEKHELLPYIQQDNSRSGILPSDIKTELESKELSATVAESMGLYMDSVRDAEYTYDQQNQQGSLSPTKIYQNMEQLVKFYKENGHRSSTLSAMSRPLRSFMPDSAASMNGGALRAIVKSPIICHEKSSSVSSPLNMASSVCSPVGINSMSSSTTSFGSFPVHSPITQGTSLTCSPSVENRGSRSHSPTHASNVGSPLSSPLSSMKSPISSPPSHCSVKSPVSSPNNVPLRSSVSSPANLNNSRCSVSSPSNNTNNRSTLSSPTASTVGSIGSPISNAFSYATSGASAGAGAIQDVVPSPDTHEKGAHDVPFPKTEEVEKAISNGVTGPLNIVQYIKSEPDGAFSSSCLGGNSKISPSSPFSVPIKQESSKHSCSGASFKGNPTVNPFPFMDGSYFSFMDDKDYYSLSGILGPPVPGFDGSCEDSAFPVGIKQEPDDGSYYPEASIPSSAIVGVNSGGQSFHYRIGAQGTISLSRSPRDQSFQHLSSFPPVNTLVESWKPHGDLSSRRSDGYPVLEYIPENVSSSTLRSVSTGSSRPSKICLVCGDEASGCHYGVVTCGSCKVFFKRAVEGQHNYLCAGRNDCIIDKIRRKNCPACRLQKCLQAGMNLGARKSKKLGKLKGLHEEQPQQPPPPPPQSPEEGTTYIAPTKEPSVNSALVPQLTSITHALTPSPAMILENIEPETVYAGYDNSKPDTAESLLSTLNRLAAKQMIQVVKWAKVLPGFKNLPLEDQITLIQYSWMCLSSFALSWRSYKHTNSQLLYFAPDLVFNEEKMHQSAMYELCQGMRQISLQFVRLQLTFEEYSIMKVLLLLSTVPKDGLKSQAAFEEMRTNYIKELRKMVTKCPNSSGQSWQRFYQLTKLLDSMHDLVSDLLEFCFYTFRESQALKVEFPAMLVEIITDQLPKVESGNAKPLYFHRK
UniProt Q63449, whole entry: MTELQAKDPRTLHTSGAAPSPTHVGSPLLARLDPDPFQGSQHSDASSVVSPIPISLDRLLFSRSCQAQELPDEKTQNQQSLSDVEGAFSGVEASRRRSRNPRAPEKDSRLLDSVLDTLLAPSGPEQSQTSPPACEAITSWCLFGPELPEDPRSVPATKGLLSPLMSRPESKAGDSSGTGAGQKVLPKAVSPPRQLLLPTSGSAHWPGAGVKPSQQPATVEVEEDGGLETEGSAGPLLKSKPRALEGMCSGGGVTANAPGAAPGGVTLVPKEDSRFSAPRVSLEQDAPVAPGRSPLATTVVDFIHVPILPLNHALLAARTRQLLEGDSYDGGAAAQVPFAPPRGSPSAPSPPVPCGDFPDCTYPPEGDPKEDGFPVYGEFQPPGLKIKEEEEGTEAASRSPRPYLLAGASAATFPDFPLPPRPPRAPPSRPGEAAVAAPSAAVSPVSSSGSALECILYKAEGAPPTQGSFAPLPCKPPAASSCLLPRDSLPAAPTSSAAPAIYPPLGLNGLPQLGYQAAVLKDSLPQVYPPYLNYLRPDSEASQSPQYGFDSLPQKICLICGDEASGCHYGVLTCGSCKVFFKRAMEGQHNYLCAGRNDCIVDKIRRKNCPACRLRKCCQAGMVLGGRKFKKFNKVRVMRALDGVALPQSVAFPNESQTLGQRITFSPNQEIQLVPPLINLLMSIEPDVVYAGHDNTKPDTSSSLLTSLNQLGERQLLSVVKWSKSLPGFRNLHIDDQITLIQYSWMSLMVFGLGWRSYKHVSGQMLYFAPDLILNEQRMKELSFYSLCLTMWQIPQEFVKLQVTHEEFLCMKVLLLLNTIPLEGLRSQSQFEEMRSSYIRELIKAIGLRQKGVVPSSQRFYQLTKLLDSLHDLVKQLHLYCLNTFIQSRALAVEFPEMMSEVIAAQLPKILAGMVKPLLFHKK

According to patent EP3733170B1, “A SELECTIVE ANDROGEN RECEPTOR MODULATOR (SARM) COMPOUND FOR USE IN THE TREATMENT, PREVENTION, SUPPRESSION, OR INHIBITION OF A SKELETAL-RELATED EVENT (SRE) IN A SUBJECT HAVING BREAST CANCER” (dated 2026):

Assays:
[1] = tested on: HCC-38 triple negative breast cancer cells; assay: Sulforhodamine B (SRB) cell viability assay in cells infected with AR or LacZ adenovirus; settings: AR positive cells; 3 days; charcoal stripped FBS or full serum
[2] = tested on: MDA-MB-231 triple negative breast cancer cells; assay: as above; settings: AR positive cells, 3 days; for growth inhibitory effects in the presence of bicalutamide: 10 µM bicalutamide; for cell growth inhibition: charcoal stripped FBS or full serum
[3] = tested on: MDA-MB-231 cells; assay: Cell morphology by light microscopy, cells stably transfected with AR; settings: 3 days of incubation
[4] = target: ER-α (Rattus norvegicus, UniProt P06211); assay: Nuclear hormone receptor transactivation (luciferase) in HEK-293 cells
[5] = target: ER-β (Rattus norvegicus, UniProt Q62986); assay: as above
[6] = target: GR (Rattus norvegicus, UniProt P06536); assay: as above
[7] = target: MR (Rattus norvegicus, UniProt P22199); assay: as above
[8] = target: PR (Rattus norvegicus, UniProt Q63449); assay: as above; settings: agonist mode
[9] = tested on: MDA-MB-231-AR triple negative breast cancer cells; assay: Triple negative breast cancer xenograft tumor growth; settings: 30 mg/kg orally, 35 days
[10] = highest tested concentration (1 µM)

C[C@](O)(COc1ccc(C#N)cc1)C(=O)Nc1ccc(C#N)c(C(F)(F)F)c1
cell growth inhibition [1]: inhibited | growth inhibitory effects in the presence of bicalutamide [2]: weakened growth inhibitory effects | cell growth inhibition [2]: inhibited | altered morphology into a more anchorage-dependent phenotype [3]: altered the morphology into a more anchored phenotype

C[C@](O)(COc1ccc(C#N)cc1)C(=O)Nc1ccc(C#N)c(Cl)c1
altered morphology into a more anchorage-dependent phenotype [3]: altered the morphology into a more anchored phenotype | alteration of estradiol-induced ER-α activity (antagonist mode) ([4]; co-incubation with estradiol): failed to alter | ER-α activation (agonist mode) [4, 10]: failed to activate | alteration of estradiol-induced ER-β activity (antagonist mode) ([5]; co-incubation with estradiol): failed to alter | ER-β activation (agonist mode) [5, 10]: failed to activate | GR-mediated transactivation (agonist mode) ([6]; all the tested concentrations): failed to activate | alteration of dexamethasone-induced GR-mediated transactivation (antagonist mode) ([6]; co-incubation with dexamethasone): failed to alter | MR-mediated transactivation (agonist mode) ([7]; all the tested concentrations): failed to activate | alteration of aldosterone-induced MR-mediated transactivation (antagonist mode) ([7]; co-incubation with aldosterone): failed to alter | PR agonist activity (in words) [8]: moderate potency partial agonist activity | increase of transactivation of PR ([8]; 1 µM): 3 fold | increase of transactivation of PR ([8]; 10 µM): 8 fold | toxicity or changes in body weight [9]: without any associated toxicity or changes in body weight | Uterus weight ([9]; data not shown): increased

C[C@]12CCC(=O)C[C@@H]1CC[C@@H]1[C@@H]2CC[C@]2(C)[C@@H](O)CC[C@@H]12
cell growth inhibition [1]: inhibited | growth inhibitory effects in the presence of bicalutamide [2]: weakened growth inhibitory effects | cell growth inhibition [2]: inhibited | altered morphology into a more anchorage-dependent phenotype [3]: altered the morphology of MDA-MB-231 cells into more anchorage dependent and differentiated cells

C[C@@](O)(COc1ccc(C#N)cc1)C(=O)Nc1ccc(C#N)c(C(F)(F)F)c1
altered morphology into a more anchorage-dependent phenotype [3]: not
